This assay concerns the target T1, Inositol hexakisphosphate kinase 3 (Homo sapiens, UniProt Q96PC2).
T1 sequence (Q96PC2 whole entry): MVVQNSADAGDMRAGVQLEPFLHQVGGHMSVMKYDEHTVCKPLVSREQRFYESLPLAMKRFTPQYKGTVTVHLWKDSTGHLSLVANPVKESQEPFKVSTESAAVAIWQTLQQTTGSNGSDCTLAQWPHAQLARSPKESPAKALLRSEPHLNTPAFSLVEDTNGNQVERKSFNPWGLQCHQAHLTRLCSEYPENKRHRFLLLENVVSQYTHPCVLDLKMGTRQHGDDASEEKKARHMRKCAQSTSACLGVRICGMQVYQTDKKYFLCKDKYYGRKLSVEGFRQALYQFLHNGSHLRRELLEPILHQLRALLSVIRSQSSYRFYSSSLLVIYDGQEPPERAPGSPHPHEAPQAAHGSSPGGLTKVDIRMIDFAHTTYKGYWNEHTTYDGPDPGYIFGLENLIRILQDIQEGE
Briefly: Inhibition of N-terminal 6His-sumo-tagged recombinant human IP6K3 expressed in Escherichia coli assessed as inorganic phosphate release using InsP6 as substrate in presence of ATP measured after 60 to 120 mins by malachite green based colorimetric - DIPP1 coupled enzyme assay.

A word on the IC50: it is the concentration that gives 50% inhibition. `Cc1ccc(-c2onc3ccc(C(=O)O)cc23)cc1`: the concentration for half-maximal inhibition (IC50) is 7.81 µM.

The values are drawn from ChEMBL document CHEMBL5154889, “Development of Novel IP6K Inhibitors for the Treatment of Obesity and Obesity-Induced Metabolic Dysfunctions” (J Med Chem, 2022).
